Protein sequences, listed by entry. Tags and fused reporters are not part of them. Residues count along the entry.
UniProt P08670, whole entry: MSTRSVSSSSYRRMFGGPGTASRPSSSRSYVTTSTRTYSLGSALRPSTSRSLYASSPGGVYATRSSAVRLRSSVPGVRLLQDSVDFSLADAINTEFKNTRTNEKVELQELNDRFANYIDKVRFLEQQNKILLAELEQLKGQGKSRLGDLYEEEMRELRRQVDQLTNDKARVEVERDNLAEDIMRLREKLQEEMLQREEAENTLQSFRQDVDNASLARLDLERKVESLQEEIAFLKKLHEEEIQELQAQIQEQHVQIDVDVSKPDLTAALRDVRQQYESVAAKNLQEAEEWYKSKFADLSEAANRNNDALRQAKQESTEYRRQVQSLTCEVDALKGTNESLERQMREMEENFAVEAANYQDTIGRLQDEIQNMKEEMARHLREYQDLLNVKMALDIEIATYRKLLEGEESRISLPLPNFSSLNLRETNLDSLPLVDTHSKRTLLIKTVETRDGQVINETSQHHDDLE
UniProt P08670, 96-253: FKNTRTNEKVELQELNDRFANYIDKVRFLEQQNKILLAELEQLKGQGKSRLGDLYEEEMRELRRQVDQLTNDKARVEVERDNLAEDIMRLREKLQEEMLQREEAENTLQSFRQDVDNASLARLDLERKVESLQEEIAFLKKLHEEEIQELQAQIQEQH
UniProt P08670, 254-405: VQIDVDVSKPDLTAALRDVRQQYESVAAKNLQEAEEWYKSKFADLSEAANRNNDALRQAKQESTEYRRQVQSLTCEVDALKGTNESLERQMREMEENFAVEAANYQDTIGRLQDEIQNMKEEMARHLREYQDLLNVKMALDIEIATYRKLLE

In patent US20230270817A1, “VIMENTIN INHIBITORS” (Filamon Pty Ltd, priority 2020, published 2023):

Legend:
vimentin full length = target: T1, vimentin full length (Homo sapiens, UniProt P08670); test: Affinity of radiolabelled c2 to immobilised proteins: vimentin full length; format: binding; settings: 50 μM [3H]c2, 37° C., 60 min, in the absence of hGIIA, FIG. 2C
T1 construct: His6 tag (HHHHHH) from pET15b (N); thrombin cleavage site (LVPRGS) (N); made in house; host or cells: Rosetta 2 E. coli, pET15b; Ni-NTA under denaturing conditions (8 M urea)
Protocol: (§1) To an Isoplate 96-well microplate with white wall and flat clear bottoms (PerkinElmer), 100 μL of either hGIIA, vimentin full length, coil 1 or 2 prepared in PBS to 40 μg/mL concentration or PBS without any proteins, was added, each in triplicate wells. The plate was covered with a lid and incubated at 4° C. overnight. The plate was emptied and blocked by adding 200 μL of 1% BSA in PBS into each well. The plated was covered with a lid and incubated at 4° C. for at least overnight. The plate was emptied and washed with 200 μL/well of PBST (containing 0.05% Tween-20) five times. The 2 mg/mL stock solution of [3H]c2 compound (SibTech, Brookfield, Conn., USA) was diluted to 50 μM in PBS and 30 μL of the prepared solution was added to each well. The plate was sealed and incubated at 37° C. for 60 min. The plate was emptied and washed with PBST five times. Ultima Gold XR scintillation fluid (PerkinElmer, Waltham, Mass., USA) was added to the washed plate (100 μL/well). The plate was sealed with a clear film and measured using a Microbeta2 scintillation counter (PerkinElmer), with default settings optimised for 3H detection.

coil 1 of vimentin = target: T2, coil 1 of vimentin (Homo sapiens, UniProt P08670); test: Affinity of radiolabelled c2 to immobilised proteins: vimentin coil 1; format: binding; settings: 50 μM [3H]c2, 37° C., 60 min, in the absence of hGIIA, FIG. 2C
T2 construct: His6 tag (HHHHHH) from pET15b (N); thrombin cleavage site (LVPRGS) (N); made in house; host or cells: Rosetta 2 E. coli, pET15b; Ni-NTA under non-denaturing conditions
Protocol: as §1

coil 2 of vimentin = target: T3, coil 2 of vimentin (Homo sapiens, UniProt P08670); test: Affinity of radiolabelled c2 to immobilised proteins: vimentin coil 2; format: binding; settings: 50 μM [3H]c2, 37° C., 60 min, in the absence of hGIIA, FIG. 2C
T3 construct: His6 tag (HHHHHH) from pET15b (N); thrombin cleavage site (LVPRGS) (N); made in house; host or cells: Rosetta 2 E. coli, pET15b; Ni-NTA under non-denaturing conditions
Protocol: as §1

hGIIA = target: T4, hGIIA (Homo sapiens, UniProt P14555); test: Affinity of radiolabelled c2 to immobilised proteins: hGIIA; format: binding; settings: 50 μM [3H]c2, 37° C., 60 min, scintillation counting, FIG. 2C
T4 construct: made in house
T4 sequence (P14555 21-144): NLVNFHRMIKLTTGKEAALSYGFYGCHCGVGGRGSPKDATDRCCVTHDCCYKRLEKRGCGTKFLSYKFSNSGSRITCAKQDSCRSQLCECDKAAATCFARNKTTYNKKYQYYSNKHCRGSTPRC
Protocol: as §1

[1] = target: T5, hGIIA binding to full length vimentin (Homo sapiens, UniProt P08670); test: Colorimetric enzyme immunoassay (EIA) of inhibitor effect on the hGIIA-vimentin interaction, full length vimentin; settings: immobilised full length vimentin, hGIIA 250 ng/mL, inhibitors 5-100 μM, FIG. 2B top panel
T5 construct: His6 tag (HHHHHH) from pET15b (N); thrombin cleavage site (LVPRGS) (N); made in house; host or cells: vimentin: Rosetta 2 E. coli (pET15b)
Protocol: The effect of inhibitors on the hGIIA-vimentin interaction was measured with a colorimetric enzyme immunoassay (EIA), using a similar protocol to the hGIIA ELISA method. Purified vimentin protein solutions (full length, coil 1 or coil 2 fragments) were diluted to 10-20 μg/mL concentration in PBS and seeded to a 96-well microplate with a 100 μL/well volume. After an overnight incubation at 4° C., the plate was emptied. Each well was then blocked with 200 μL of 1% BSA in PBS. The blocked plate was incubated for at least an overnight period at 4° C. and used within 1 week.
The hGIIA solution was prepared with or without inhibitors. For testing the hGIIA binding to vimentin, samples of the hGIIA solution were prepared in a range of 5-1000 ng/mL in PBS with 0.1% BSA, without any inhibitors. The PBS buffer with 0.1% BSA without any hGIIA served as a control. For testing the efficacy of the inhibitors, stock solutions of the inhibitors prepared in DMSO were step diluted in DMSO and added to the solution of purified hGIIA (250 ng/mL, in PBS with 0.1% BSA) to the final concentrations between 5-100 μM. […]
The AP substrate PNPP powder was dissolved in carbonate buffer to 1 mg/mL concentration. […] The prepared PNPP solution was added (100 μL/well) and the plates were incubated at 37° C. for up to 60 minutes and the absorbance at 405 nm was read by a Victor X4 plate reader at 15-minute intervals.

binding of 3H-labelled c2 to immobilised full-length vimentin (vimentin full length) | binding of 3H-labelled c2 to immobilised coil 1 of vimentin (coil 1 of vimentin) | binding of 3H-labelled c2 to immobilised coil 2 of vimentin (coil 2 of vimentin) | binding of 3H-labelled c2 to immobilised hGIIA (hGIIA) | Substance | inhibition of hGIIA binding to full length vimentin [1]
more strongly | not to coil 1 | more strongly | binds weakly | 3H-labelled c2: radiolabelled c2 compound (SibTech) | –
– | – | – | – | cyclo-((2-Nal)-Leu-Ser-(2-Nal)-Arg) [c2] | greater inhibition of hGIIA binding to full length vimentin than LY311727
